The values that follow are results of earlier work, collected in US9738690B2, “Polyoma virus JC peptides and proteins in vaccination and diagnostic applications” (UNIVERSITAET ZUERICH, priority 2011, dated 2017).

For the series the following is noted: MS patients receiving natalizumab; cited from earlier work.

Where only a bound is given, the exact number is not on record here.

On to natalizumab, for which the PML cases reported is reported as > 120.
